Measured values published in US10947239B2, “[1,2,4]triazolo[1,5-a]pyrimidin-7-yl compound” (Janssen Pharmaceutica NV, priority 2015, dated 2021).

Chains of the proteins cited; added tags and fusions are not shown.
UniProt O00408, whole entry: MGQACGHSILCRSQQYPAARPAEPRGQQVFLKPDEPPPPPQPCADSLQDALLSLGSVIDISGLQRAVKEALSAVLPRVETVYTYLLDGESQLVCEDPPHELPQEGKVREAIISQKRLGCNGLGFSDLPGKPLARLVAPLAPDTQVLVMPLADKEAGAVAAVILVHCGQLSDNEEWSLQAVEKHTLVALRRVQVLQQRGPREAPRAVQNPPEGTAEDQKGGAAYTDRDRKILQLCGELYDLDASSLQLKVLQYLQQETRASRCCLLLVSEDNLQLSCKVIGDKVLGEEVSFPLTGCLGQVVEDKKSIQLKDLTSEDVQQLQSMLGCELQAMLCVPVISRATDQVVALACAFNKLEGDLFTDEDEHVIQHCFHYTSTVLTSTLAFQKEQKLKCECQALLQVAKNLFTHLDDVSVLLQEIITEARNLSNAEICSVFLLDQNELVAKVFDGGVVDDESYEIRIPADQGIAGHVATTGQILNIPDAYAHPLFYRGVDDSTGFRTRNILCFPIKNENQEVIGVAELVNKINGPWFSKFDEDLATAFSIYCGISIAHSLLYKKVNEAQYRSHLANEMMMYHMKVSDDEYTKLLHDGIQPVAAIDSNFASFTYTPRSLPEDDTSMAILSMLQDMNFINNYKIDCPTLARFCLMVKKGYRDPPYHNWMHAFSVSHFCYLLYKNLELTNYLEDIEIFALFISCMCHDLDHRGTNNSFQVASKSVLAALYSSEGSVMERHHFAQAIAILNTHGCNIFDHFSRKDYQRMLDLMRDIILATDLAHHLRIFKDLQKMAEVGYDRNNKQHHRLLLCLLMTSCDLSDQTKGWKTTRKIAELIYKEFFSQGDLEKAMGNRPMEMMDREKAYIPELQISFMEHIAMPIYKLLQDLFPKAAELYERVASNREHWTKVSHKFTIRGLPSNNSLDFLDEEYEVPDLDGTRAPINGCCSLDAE
UniProt Q14432, whole entry: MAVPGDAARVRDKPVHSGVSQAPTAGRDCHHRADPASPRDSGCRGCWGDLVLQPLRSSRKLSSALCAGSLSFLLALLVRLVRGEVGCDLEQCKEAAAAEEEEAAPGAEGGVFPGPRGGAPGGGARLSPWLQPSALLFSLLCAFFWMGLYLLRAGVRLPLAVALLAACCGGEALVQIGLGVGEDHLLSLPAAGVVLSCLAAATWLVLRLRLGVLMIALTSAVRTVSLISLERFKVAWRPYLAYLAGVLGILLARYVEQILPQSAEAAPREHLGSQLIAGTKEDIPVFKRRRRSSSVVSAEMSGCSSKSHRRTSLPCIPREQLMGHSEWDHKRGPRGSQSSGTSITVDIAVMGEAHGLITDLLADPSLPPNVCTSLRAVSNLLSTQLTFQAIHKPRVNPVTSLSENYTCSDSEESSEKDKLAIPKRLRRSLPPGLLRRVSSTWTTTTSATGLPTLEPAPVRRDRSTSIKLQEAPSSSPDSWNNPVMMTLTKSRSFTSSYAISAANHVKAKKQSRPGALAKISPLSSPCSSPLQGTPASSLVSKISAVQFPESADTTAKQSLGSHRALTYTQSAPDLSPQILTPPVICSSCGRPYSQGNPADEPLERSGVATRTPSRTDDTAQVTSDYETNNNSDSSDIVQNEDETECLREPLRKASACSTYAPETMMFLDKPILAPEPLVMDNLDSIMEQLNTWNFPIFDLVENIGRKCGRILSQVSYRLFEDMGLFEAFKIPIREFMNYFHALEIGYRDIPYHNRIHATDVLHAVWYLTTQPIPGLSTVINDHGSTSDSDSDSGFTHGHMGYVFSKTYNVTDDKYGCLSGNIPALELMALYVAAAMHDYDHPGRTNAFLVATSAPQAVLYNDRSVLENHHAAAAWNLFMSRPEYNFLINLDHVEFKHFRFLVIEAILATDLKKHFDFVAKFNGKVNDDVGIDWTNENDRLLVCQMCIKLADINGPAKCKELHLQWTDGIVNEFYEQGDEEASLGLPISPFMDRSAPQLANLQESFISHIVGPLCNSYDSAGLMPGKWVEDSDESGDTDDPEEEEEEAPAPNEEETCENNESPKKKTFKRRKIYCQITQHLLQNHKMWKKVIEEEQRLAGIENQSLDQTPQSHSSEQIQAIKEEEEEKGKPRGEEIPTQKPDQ
UniProt Q9QYJ6, whole entry: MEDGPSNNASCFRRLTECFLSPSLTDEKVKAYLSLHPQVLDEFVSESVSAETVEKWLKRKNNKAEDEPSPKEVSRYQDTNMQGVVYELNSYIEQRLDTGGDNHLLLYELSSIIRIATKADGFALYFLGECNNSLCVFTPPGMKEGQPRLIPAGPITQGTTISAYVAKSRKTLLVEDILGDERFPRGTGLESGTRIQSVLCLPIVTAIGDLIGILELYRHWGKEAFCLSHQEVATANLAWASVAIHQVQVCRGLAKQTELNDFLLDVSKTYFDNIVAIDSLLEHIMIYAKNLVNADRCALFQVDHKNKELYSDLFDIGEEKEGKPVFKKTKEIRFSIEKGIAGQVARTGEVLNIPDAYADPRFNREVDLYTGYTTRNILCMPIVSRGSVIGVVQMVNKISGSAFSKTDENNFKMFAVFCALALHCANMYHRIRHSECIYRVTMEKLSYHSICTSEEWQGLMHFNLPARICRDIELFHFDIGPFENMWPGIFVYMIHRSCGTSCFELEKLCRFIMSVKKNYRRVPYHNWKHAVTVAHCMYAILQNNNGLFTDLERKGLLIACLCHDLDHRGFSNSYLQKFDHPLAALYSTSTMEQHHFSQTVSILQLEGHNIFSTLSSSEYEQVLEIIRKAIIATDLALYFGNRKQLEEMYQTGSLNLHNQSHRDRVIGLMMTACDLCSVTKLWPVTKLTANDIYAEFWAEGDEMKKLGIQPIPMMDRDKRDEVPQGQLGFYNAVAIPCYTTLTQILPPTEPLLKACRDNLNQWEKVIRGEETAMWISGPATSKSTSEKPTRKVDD

Columns and labels:
[1] = target: Human recombinant PDE2A (hPDE2A) (Homo sapiens (Human), UniProt O00408); experiment: In vitro assay PDE2A (SPA, 3H-cGMP)
[2] = target: Human recombinant PDE3A (hPDE3A) (Homo sapiens, UniProt Q14432); experiment: In vitro assay PDE3A (SPA, 3H-cAMP); details: −log IC50 expressed in mol/L; method describes hPDE3A
Experimental: Human recombinant PDE3A (hPDE3A) was supplied as a partially purified insect cell lysate by Scottish Biomedical, it was cloned from human brain and expressed in Sf9 cells. Tested compounds were dissolved and diluted in 100% DMSO to a concentration 100 fold of the final concentration in the assay. Compound dilutions (0.4 μl) were added in 384 well plates to 20 μl of incubation buffer (50 mM Tris pH 7.8, 8.3 mM MgCl2, 1.7 mM EGTA). 10 μl of hPDE3A enzyme in incubation buffer was added and the reaction was started by addition of 10 μl substrate to a final concentration of 0.4 μM cAMP and 2.4 μCi/ml [^3H]-cAMP. The reaction was incubated for 60 min at room temperature. After incubation, the reaction was stopped with 20 μl of stop solution consisting of 17.8 mg/ml PDE SPA (scintillation proximity assay) beads supplemented with 200 mM ZnCl2. After sedimentation of the beads during 30 min the radioactivity was measured in a Perkin Elmer Topcount scintillation counter and results were expressed as cpm. For blanc values the enzyme was omitted from the reaction and replaced by incubation buffer. Control values were obtained by addition of a final concentration of 1% DMSO instead of compound. […]

[3] = target: Rat recombinant PDE10A (rPDE10A2) (Rattus norvegicus (Rat), UniProt Q9QYJ6); experiment: In vitro assay PDE10A (SPA, 3H-cAMP); details: −log IC50 expressed in mol/L

SMILES: Cc1cc(C(=O)N2CC[C@@H](C)[C@H](c3cc(C(F)F)nc4ncnn34)C2)cc(C)n1 [Compound 1]
- IC50 ([1]; read-out: IC50 PDE2A, hPDE2A, 10 μM cGMP): 0.7 nM
- pIC50 (PDE2A) ([1]; −log IC50 expressed in mol/L): 9.11
- pIC50 PDE3B [2]: 5.15
- pIC50 PDE10A2 [3]: 6.93
